Assay [1] concerns the target T1, Delta mMor1 (Mus musculus, UniProt P42866, INS358LEVLFQGP/INS51ENLYFQ). Particulars: read-out: IC50, displacement of [3H]-diprenorphine; Delta mMor1/Sf9 membranes, 1 nM radioligand, 1 hour at room temperature.
Assay [2] concerns the target T1, Delta mMor1. Description: Radioligand competition assay of Dmt1-Dalda on Delta mMor1/Sf9 membranes pre-incubated with VHH. The assay is classed as binding. The arrangement: expressed in transfected cells; host or cells: Sf9 insect cells, baculovirus-infected (BestBac).

The chains behind the UniProt entries cited, without tags or fusion partners. Where a name states a change or a piece, a line headed by the entry shows the natural chain unless it says otherwise.
UniProt P42866: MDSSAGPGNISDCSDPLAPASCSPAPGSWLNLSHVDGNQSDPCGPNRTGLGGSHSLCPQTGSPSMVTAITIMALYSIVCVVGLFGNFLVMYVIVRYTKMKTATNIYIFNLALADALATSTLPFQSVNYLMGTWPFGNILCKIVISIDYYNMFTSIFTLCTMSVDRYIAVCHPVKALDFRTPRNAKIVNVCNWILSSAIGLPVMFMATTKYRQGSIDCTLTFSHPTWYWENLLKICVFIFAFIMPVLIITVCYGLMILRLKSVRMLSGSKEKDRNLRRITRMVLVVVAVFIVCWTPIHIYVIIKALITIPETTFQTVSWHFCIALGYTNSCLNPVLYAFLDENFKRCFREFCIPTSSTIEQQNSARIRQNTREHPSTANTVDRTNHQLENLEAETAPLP

Where two headings read alike, the source gives them in different places.

Take Dmt1-Dalda: the IC50 at Delta mMor1 [1] was 511 nM; on Delta mMor1 [2] (read-out: IC50 of Dmt1-Dalda in presence of XA8633, 1 nM [3H]-diprenorphine, 5 μM XA8633) it was 57 nM; on Delta mMor1 [2] (read-out: IC50 of Dmt1-Dalda in presence of mock VHH (CA4910), 1 nM [3H]-diprenorphine, mock VHH CA4910), 550 nM.

The values are drawn from patent publication US10233241B2 (priority 2014, dated 2019).
